{"source": "patent US20160151503A1", "about": "“COMPOSITIONS AND PREPARATION METHODS OF LOW MELTING IONIC SALTS OF POORLY-WATER SOLUBLE DRUGS” (MW ENCAP LIMITED, priority 2013, published 2016)", "assay": "Drug solubility in exemplar lipid formulations (SEDDS) and individual excipients", "conditions": "Table 5 Dextromethorphan and Metformin", "data": [{"substance": "Dextromethorphan Decylsulfate (Mixture of Isomers [Cation])", "values": [{"measurement": "Solubility in MC SEDDS (mg/g) Free base equiv.", "result": "50 to 100", "unit": "mg/g"}]}]}
